Several values for one entry are separate records, joined by “and”; a condition that tells them apart may be missing. Equal entries are not always repeated. The list shows a part of the results, in another mix than the full data. Inconclusive results are not listed. Activity calls are given as the source filed them. Unless noted, calls come from the whole dose curve; as a rule, active = well fitted curve in the direction sought with a large enough effect in the repeat runs; inconclusive = weak or mixed curves; inactive = no such curve, though single readings can be large; an effect the other way counts as inactive or inconclusive.
What was measured:
[1] = A CellTox Green Cytotoxicity Assay to monitor cytotoxicity in HepG2 cells - 8 hour (AID 1224890); details: CellTox Green fluorescence; at 76.8 µM (top of the series); note: nearly all actives have a fitted effect of over 45% in size
In short: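 Fluorescent DNA-binding dye, 600 HepG2 cells/well, 5 h preincubation then compound in DMSO; same plates read at 0–40 h, 37 C.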

By UniProt entry, the sequences of proteins in these tests, tags left out.
UniProt P10275, whole entry: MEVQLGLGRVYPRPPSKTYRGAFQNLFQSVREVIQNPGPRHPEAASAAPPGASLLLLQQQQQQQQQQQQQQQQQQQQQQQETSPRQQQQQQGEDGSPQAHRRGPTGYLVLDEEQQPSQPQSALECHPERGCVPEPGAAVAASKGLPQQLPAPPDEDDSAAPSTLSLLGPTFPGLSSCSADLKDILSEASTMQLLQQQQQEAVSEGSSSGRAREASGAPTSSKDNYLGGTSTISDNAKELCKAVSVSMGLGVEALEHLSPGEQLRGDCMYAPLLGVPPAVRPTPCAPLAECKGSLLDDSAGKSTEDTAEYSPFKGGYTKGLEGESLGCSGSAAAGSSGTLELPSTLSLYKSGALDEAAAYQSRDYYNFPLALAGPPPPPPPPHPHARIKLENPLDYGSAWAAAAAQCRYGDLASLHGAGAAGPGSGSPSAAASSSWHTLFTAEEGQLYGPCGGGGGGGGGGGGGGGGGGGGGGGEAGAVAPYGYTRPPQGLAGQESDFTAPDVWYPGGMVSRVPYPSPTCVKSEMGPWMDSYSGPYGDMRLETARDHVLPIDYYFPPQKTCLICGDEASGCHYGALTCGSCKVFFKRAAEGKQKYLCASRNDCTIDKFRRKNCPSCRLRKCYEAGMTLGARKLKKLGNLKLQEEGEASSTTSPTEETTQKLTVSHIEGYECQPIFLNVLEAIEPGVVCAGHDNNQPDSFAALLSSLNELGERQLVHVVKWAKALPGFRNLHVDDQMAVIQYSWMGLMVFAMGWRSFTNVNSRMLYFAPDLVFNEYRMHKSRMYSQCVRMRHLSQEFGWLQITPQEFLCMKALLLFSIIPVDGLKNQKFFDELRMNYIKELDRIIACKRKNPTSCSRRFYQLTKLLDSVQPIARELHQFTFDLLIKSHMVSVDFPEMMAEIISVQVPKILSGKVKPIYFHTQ
UniProt Q92731, whole entry: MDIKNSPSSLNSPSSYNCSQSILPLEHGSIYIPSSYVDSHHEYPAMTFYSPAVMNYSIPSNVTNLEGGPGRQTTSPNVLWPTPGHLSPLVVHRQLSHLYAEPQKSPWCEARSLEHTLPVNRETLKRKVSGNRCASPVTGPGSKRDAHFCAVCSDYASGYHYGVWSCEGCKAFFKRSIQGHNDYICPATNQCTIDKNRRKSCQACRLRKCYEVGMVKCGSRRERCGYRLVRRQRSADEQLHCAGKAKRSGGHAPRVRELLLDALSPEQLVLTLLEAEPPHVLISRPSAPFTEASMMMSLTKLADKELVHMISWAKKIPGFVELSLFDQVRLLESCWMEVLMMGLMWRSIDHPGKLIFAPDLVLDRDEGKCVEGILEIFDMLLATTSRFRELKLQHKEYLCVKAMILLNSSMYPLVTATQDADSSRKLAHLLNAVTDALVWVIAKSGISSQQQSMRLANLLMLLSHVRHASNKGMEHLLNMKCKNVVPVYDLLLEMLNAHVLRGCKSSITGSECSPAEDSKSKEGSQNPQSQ
UniProt P16473, whole entry: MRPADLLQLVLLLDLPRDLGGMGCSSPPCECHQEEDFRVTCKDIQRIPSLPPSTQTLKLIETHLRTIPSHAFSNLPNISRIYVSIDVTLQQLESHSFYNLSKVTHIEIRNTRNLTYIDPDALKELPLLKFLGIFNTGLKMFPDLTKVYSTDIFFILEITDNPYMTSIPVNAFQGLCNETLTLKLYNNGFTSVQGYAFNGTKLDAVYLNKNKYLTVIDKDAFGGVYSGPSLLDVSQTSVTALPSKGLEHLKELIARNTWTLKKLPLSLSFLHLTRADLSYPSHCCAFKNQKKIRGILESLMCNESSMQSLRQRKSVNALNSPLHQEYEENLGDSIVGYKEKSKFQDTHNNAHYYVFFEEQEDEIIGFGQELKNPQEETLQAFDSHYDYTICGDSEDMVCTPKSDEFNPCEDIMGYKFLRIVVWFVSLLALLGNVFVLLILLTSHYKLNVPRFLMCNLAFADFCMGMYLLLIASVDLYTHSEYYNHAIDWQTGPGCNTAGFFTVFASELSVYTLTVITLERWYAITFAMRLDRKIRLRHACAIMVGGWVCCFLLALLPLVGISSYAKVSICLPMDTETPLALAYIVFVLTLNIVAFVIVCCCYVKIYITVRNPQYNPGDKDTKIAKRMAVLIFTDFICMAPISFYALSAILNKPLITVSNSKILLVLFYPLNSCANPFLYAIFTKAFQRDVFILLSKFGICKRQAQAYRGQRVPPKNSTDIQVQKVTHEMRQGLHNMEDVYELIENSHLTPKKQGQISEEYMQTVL
UniProt P03372, whole entry: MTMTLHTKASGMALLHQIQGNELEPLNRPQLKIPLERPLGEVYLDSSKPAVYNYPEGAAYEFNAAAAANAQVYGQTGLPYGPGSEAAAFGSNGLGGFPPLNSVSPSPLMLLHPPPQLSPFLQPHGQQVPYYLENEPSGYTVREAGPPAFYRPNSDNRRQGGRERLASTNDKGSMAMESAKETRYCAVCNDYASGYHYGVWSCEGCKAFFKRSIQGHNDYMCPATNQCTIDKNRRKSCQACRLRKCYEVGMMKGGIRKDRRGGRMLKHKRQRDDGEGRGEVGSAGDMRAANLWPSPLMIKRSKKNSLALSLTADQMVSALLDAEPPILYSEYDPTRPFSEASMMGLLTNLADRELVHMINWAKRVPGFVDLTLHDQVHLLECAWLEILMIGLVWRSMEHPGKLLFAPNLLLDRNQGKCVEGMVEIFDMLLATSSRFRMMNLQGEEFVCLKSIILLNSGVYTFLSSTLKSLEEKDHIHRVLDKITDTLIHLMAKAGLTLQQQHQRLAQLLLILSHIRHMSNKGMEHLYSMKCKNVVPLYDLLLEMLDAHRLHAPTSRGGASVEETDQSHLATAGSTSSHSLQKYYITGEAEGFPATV

[2] = qHTS assay to identify small molecule antagonists of the estrogen receptor alpha (ER-alpha) signaling pathway using the BG1 cell line in the presence of 0.1 nM 17-beta-estradiol - cell viability counter screen (AID 1259241); details: VM7Luc4E2 (BG1) viability, CellTiter-Fluor protease, 22 h, 0.1 nM estradiol agonist added; at 92.4 µM (top of the series) unless noted; note: nearly all actives have a fitted effect of over 40% in size
In short: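 Measures cytotoxicity alongside the ER-alpha antagonist readout: VM7Luc4E2 cells, charcoal-stripped serum, 0.1 nM 17beta-estradiol final, 22 hr compound incubation at 37C, CellTiter-Fluor fluorescence.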

[3] = qHTS assay to identify small molecule antagonists of the androgen receptor (AR) signaling pathway using the MDA cell line in the presence of 0.5 nM R1881 - cell viability counter screen (AID 1259242); note: nearly all actives have a fitted effect of over 45% in size
In short: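 Human breast carcinoma MDA-kb2 cells, cultured without CO2, receive compounds alongside 0.5 nM (final) R1881 agonist. After 16 hr at 37C, viability is taken as live-cell protease signal.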

[4] = molecular target: Androgen receptor (Homo sapiens) (UniProt P10275); experiment: qHTS assay to identify small molecule antagonists of the androgen receptor (AR) signaling pathway using the MDA cell line in the presence of 0.5 nM R1881 (AID 1259243); details: MDA-kb2 MMTV-luciferase, R1881 0.5 nM, 16 h; at 92.4 µM (top of the series) unless noted; note: nearly all actives have a fitted effect of over 50% in size
[5] = qHTS assay to identify small molecule HDAC inhibitors (AID 1259364); details: HCT-116 HDAC-Glo I/II luminescence, 2 h; at 92.4 µM (top of the series) unless noted;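 note: wild-type HCT-116 cells with endogenous class I/II HDAC activity; top concentration of the series differs between compounds; nearly all actives have a fitted effect of over 45% in size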
In short: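 After a 2 hr compound incubation (37C, 5% CO2), HCT-116 cells seeded at 1,500/well the day before received HDAC-Glo reagent; signal read as luminescence after 30 min at room temperature.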

[6] = qHTS assay to identify small molecule HDAC inhibitors - cell viability counter screen (AID 1259365); details: HCT-116 viability, CellTiter-Glo ATP luminescence, 2 h; at 92.4 µM (top of the series) unless noted; note: nearly all actives have a fitted effect of over 50% in size
In short: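 Following a 2hr exposure of overnight-plated wild-type HCT-116 cells to DMSO-delivered compounds, CellTiter-Glo was added and luminescence recorded after 30min at room temperature.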

[7] = qHTS assay to identify small molecule agonists of the sonic hedgehog signaling (Shh) pathway - cell viability counter screen (AID 1259366); details: NIH/3T3 Gli1-Luc viability, CellTiter-Fluor, 24 h; at 92.4 µM (top of the series) unless noted; note: nearly all actives have a fitted effect of over 50% in size
In short: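 After a 4hr attachment at 37C, NIH/3T3 cells bearing an integrated Gli1-driven luciferase reporter were dosed with compounds. Treatment lasted 24hr, with the final hour including CellTiter-Fluor for a fluorescence viability measurement.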

[8] = qHTS assay to identify small molecule antagonists of the sonic hedgehog signaling (Shh) pathway - cell viability counter screen (AID 1259367); details: NIH/3T3 Gli1-Luc viability, CellTiter-Fluor, 24 h; at 92.4 µM (top of the series) unless noted; note: nearly all actives have a fitted effect of over 55% in size
In short: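 Viability was read by CellTiter-Fluor fluorescence in the same wells, reagent added 23 hr into compound treatment and incubated 1 hr at 37C. The 3T3 Gli1-Luc reporter cells (2,000/well) received conditioned medium after compound and ran 24 hr.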

[9] = qHTS assay to identify small molecule agonists of the sonic hedgehog signaling (Shh) pathway (AID 1259368; calls by dose curve;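 note: NIH/3T3-derived 3T3Gli1-Luc cells carrying a stable Gli1-driven firefly luciferase reporter; nearly all actives have a fitted effect of over 15% in size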); details: NIH/3T3 Gli1-Luc reporter, luciferase, 24 h, active compounds read high; at 92.4 µM (top of the series) unless noted
In short: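 Stable NIH/3T3 Gli1-Luc reporter clone; 24 hr cpd exposure after a 4 hr settling period; luminescence endpoint.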

[10] = qHTS assay to identify small molecule antagonists of the sonic hedgehog signaling (Shh) pathway (AID 1259369; calls by dose curve; note: nearly all actives have a fitted effect of over 45% in size); details: NIH/3T3 Gli1-Luc reporter, Shh antagonist, luminescence 24 h; at 92.4 µM (top of the series) unless noted
In short: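 Gli1 transcriptional reporter (firefly Luc) in NIH/3T3 background, conditioned-medium activated. 24hr exposure, luminescence endpoint.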

[11] = molecular target: Estrogen receptor beta (Homo sapiens) (UniProt Q92731); experiment: qHTS assay to identify small molecule agonists of the estrogen receptor beta (ER-beta) signaling pathway (AID 1259377; active = well fitted activation curve with a large enough effect in the signal ratio in the repeat runs, not every such curve was filed as active; the % refers to the signal ratio); details: ER-beta-UAS-bla HEK293T, beta-lactamase FRET ratio, 16 h; at 92.4 µM (top of the series) unless noted
[12] = molecular target: Estrogen receptor beta (Homo sapiens) (UniProt Q92731); experiment: qHTS assay to identify small molecule antagonists of the estrogen receptor beta (ER-beta) signaling pathway (AID 1259378; active = well fitted inhibition curve with a large enough effect in the signal ratio in the repeat runs, not every such curve was filed as active; the % refers to the signal ratio); details: ER-beta-UAS-bla HEK293T, beta-lactamase FRET ratio, 16 h; at 92.4 µM (top of the series) unless noted
In short: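 Antagonist mode: compounds added to beta-lactamase reporter HEK293T ER-beta-UAS cells stimulated with E2 (1nM final), 16 hr at 37C. LiveBLAzer B/G FRET substrate, 2 hours room temperature, fluorescence read-out.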

[13] = qHTS assay to identify small molecule agonists of the androgen receptor (AR) signaling pathway in the presence of an antagonist - cell viability counter screen (AID 1259379);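 note: MDA-kb2 human breast cancer cells carrying an MMTV luciferase reporter; nearly all actives have a fitted effect of over 25% in size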
In short: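 Counter screen for cell viability run in parallel with the AR agonist-mode luciferase assay. MDA-kb2 cells were co-treated with nilutamide (3.0uM final) and compounds, then incubated 16 hr at 37C, and CellTiter-Fluor fluorescence was measured.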

[14] = qHTS assay to identify small molecule agonists of the estrogen receptor beta (ER-beta) signaling pathway - cell viability counter screen (AID 1259380); details: ER-beta-bla HEK293T viability, CellTiter-Glo luminescence, 16 h; at 92.4 µM (top of the series) unless noted; note: nearly all actives have a fitted effect of over 30% in size
In short: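 In this qHTS counter screen, HEK293T cells carrying an ER-beta/UAS beta-lactamase reporter, grown in 2% charcoal-stripped FBS, received compound for 16 hr; ATP-based CellTiter-Glo luminescence was then read after 30 min at room temperature.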

[15] = molecular target: Androgen receptor (Homo sapiens) (UniProt P10275); experiment: qHTS assay to identify small molecule agonists of the androgen receptor (AR) signaling pathway in the presence of an antagonist (AID 1259381; calls by dose curve; note: nearly all actives have a fitted effect of over 15% in size); details: MDA-kb2 MMTV-luciferase, AR agonist + nilutamide, 16 h; at 92.4 µM (top of the series) unless noted
[16] = qHTS assay to identify small molecule antagonists of the estrogen receptor beta (ER-beta) signaling pathway - cell viability counter screen (AID 1259382); details: ER-beta-UAS-bla HEK293T viability, CellTiter-Glo luminescence, 16 h; at 92.4 µM (top of the series) unless noted;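 note: HEK293T cells carrying ER-beta-UAS-bla reporter stimulated with estradiol; nearly all actives have a fitted effect of over 55% in size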
In short: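 HEK293T ER-beta-UAS-bla, 2% charcoal-stripped FBS; compounds + 1nM E2 16 hr 37C; CellTiter-Glo luminescence, 30 min RT.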

[17] = qHTS assay to identify small molecule agonists or antagonists of the thyroid stimulating hormone receptor (TSHR) signaling pathway - wild type cell line counter screen (AID 1259384; calls by dose curve); details: HEK293 wild type, cAMP HTRF counter-screen, active compounds read high; at 92.4 µM (top of the series) unless noted
In short: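 Counter screen in untransfected Hek293: compounds (15-point titration, triplicate) plus phosphodiesterase inhibitor Ro20-1724 added after 18 h plating; 30 min RT. Intracellular cAMP via competitive d2/cryptate immunoassay, 1 h incubation.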

[18] = molecular target: Thyrotropin receptor (Homo sapiens) (UniProt P16473); experiment: qHTS assay to identify small molecule antagonists of the thyroid stimulating hormone receptor (TSHR) signaling pathway (AID 1259385; calls by dose curve; note: nearly all actives have a fitted effect of over 20% in size); details: TSHR-HEK293 cAMP HTRF, TSH-stimulated antagonist mode; at 92.4 µM (top of the series) unless noted
[19] = molecular target: Estrogen receptor (Homo sapiens) (UniProt P03372); experiment: qHTS assay to identify small molecule antagonists of the estrogen receptor alpha (ER-alpha) signaling pathway using the BG1 cell line in the presence of 0.1 nM 17-beta-estradiol (AID 1259244); details: VM7Luc4E2 (BG1) ERE-luciferase, antagonist mode, 0.1 nM E2, 22 h; at 92.4 µM (top of the series) unless noted; note: nearly all actives have a fitted effect of over 50% in size
[20] = molecular target: Estrogen receptor (Homo sapiens) (UniProt P03372); experiment: qHTS assay to identify small molecule agonists of the estrogen receptor alpha (ER-alpha) signaling pathway in the presence of an antagonist (AID 1259383; calls by dose curve; note: top concentration of the series differs between compounds; nearly all actives have a fitted effect of over 15% in size); details: VM7Luc4E2 cells, ERE-luciferase, +ICI-182,780, 22 h; at 92.4 µM (top of the series) unless noted
% is set by controls: 0 for no effect and ±100 for the full control effect.

CC(C)OP(OC(C)C)OC(C)C
inactive: cytotoxicity increase [1] 1.75% | activity change, negative = cytotoxicity [2] 3.31% | Potency [3] | activity, negative = inhibition [4] 0.307% | activity change, negative = inhibition [5] -2.91% | activity change, negative = cytotoxicity [6] 4.64% | viability change, negative = cytotoxic [7] -13.5% | viability change, negative = cytotoxic [8] -10.2% | activity change [9] 0.905% | activity change, negative = inhibition [10] 15.9% | activation [11] 3.96% | activity, negative = inhibition [12] 0.698% | Potency [13] | activity change, negative = cytotoxicity [14] 5.15% | activation [15] -2.4% | activity change, negative = cytotoxicity [16] 11.9% | cAMP activity change [17] 1.54% | activity change, negative = inhibition [18] 1.93%

CCC(=O)N(c1ccccc1)C1CCNCC1
inactive: activity change, negative = cytotoxicity [2] -11.6% [at 42.5 µM] | Potency [3] | activity, negative = inhibition [4] -11.2% [at 42.5 µM] | activity change, negative = inhibition [19] -0.736% [at 42.5 µM] | activity change, negative = inhibition [5] 3.73% [at 42.5 µM] | activity change, negative = cytotoxicity [6] 1.45% [at 42.5 µM] | viability change, negative = cytotoxic [7] -0.339% [at 42.5 µM] | viability change, negative = cytotoxic [8] 1.64% [at 42.5 µM] | activity change [9] 0.866% [at 42.5 µM] | activity change, negative = inhibition [10] 3.51% [at 42.5 µM] | Potency [13] | activity change, negative = cytotoxicity [14] 4.08% [at 42.5 µM] | activation [15] 4.42% [at 42.5 µM] | activity change, negative = cytotoxicity [16] 5.36% [at 42.5 µM] | activation [20] -0.0388% [at 42.5 µM] | cAMP activity change [17] -1.64% [at 42.5 µM] | activity change, negative = inhibition [18] -0.296% [at 42.5 µM]

ClCCNCCCl
inactive: cytotoxicity increase [1] -18% | activity change, negative = cytotoxicity [2] 6.48% | Potency [3] | activity, negative = inhibition [4] -1.14% | activity change, negative = inhibition [19] -0.186% | activity change, negative = inhibition [5] 3.46% | activity change, negative = cytotoxicity [6] 0.185% | viability change, negative = cytotoxic [7] -2.47% | viability change, negative = cytotoxic [8] -4.58% | activity change [9] -1.8% | activity change, negative = inhibition [10] -11.5% | activation [11] -3.49% | activity, negative = inhibition [12] 11.3% | Potency [13] | activity change, negative = cytotoxicity [14] -3.53% | activation [15] 2.56% | activity change, negative = cytotoxicity [16] 0% | activation [20] -0.0401% | cAMP activity change [17] 3.44% | activity change, negative = inhibition [18] 0.627%

CCOP(=O)(Cl)Cl
inactive: cytotoxicity increase [1] -8.05% and -8.02% | activity change, negative = cytotoxicity [2] 5.46% and 4.6% | Potency [3] | activity change, negative = inhibition [5] 3.29% and -1.42% | activity change, negative = cytotoxicity [6] 1.7% and 2.46% | viability change, negative = cytotoxic [7] 2.36% | viability change, negative = cytotoxic [8] 2.05% and -0.548% | activity change [9] 7.18% and -0.759% | activity change, negative = inhibition [10] 5.37% and 13.8% | Potency [13] | activity change, negative = cytotoxicity [14] 2.29% and -0.0404% | activity change, negative = cytotoxicity [16] 0.339% and 5.01% | cAMP activity change [17] -6.71% and -0.0745% | activity change, negative = inhibition [18] -0.391% and -0.452%

— PubChem BioAssay (Tox21)
